Data: the Kinase Knowledgebase extract (Sharma et al. 2016)

Chains of the proteins cited; added tags and fusions are not shown. Lines headed by an entry give the natural chain unless they say otherwise; changes in a name come on top.
UniProt O00329: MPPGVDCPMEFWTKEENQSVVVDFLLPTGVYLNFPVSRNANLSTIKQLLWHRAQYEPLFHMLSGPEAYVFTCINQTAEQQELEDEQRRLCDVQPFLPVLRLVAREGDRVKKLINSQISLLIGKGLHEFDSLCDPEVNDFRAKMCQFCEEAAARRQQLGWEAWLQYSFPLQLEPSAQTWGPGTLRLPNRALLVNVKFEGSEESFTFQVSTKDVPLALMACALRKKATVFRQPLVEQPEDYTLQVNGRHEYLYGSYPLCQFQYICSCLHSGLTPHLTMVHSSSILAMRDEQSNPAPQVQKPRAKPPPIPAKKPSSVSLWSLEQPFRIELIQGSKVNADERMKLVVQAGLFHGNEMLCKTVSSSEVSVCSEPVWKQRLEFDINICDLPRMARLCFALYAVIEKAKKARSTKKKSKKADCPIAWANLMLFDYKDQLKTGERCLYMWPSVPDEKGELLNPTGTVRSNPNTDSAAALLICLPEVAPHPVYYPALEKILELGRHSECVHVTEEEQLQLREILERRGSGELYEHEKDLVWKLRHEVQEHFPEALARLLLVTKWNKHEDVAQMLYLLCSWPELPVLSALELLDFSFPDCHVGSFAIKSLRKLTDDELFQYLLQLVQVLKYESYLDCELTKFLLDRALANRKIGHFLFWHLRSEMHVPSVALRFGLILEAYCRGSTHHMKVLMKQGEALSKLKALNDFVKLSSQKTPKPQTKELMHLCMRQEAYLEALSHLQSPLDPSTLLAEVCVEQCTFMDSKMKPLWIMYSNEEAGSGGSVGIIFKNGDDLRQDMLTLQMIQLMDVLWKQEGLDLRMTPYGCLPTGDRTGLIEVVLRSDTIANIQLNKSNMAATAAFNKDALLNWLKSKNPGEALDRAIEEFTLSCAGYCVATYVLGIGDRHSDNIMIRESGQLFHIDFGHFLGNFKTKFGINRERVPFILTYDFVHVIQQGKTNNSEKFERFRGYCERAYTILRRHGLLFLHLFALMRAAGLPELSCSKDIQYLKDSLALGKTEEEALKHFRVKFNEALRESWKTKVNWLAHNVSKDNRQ

Target: PIK3CD (Human) (UniProt O00329)
Assay: Inhibition of PIK3CD Kinase Activity in Pfeiffer Cells

Cc1csc2nc(C(C)Nc3ncnc4[nH]cnc34)c(-c3cccc(F)c3)c(=O)n12 (stereo unspecified)
IC50: < 50 nM
